# Reference: patent US20040072743A1 (priority 2000, published 2004)
# Assays:
# [1] = Oral bioavailability in rats (Example 11); settings: Sprague-Dawley rats, approx. 10 mg/kg p.o. vs i.v., 5% glucose solution, plasma 0-4 hours
# [2] = Subcutaneous bioavailability in rats (Example 12); settings: Sprague-Dawley rats, approx. 10 mg/kg s.c. vs i.v., 5% glucose solution, plasma 0-4 hours
Molecule,oral bioavailability (AUC[p.o. adm]/AUC[i.v. adm.])×100% [1],subcutaneous bioavailability (AUC[s.c. adm]/AUC[i.v. adm.])×100% [2]
Cc1cn(CC(=O)N(CCNC(=O)CN(CCNC(=O)CN(CCNC(=O)CN(CCNC(=O)CN(CCNC(=O)CN(CCNC(=O)CN(CCNC(=O)CN(CCNC(=O)CN(CCNC(=O)CN(CCNC(=O)CN(CCNC(=O)CN(CCNC(=O)COCCOCCNC(=O)[C@H](CCCCN)NC(=O)[C@H](Cc2ccccc2)NC(=O)[C@H](Cc2ccccc2)NC(=O)[C@H](CCCCN)NC(=O)[C@H](Cc2ccccc2)NC(=O)[C@H](Cc2ccccc2)NC(=O)[C@H](CCCCN)NC(=O)[C@H](Cc2ccccc2)NC(=O)[C@H](Cc2ccccc2)NC(=O)[C@@H](N)CCCCN)C(=O)Cn2cc(C)c(=O)[nH]c2=O)C(=O)Cn2cc(C)c(=O)[nH]c2=O)C(=O)Cn2ccc(N)nc2=O)C(=O)Cn2cnc3c(N)ncnc32)C(=O)Cn2cnc3c(N)ncnc32)C(=O)Cn2cnc3c(N)ncnc32)C(=O)Cn2ccc(N)nc2=O)C(=O)Cn2cnc3c(N)ncnc32)C(=O)Cn2cc(C)c(=O)[nH]c2=O)C(=O)Cn2cnc3c(N)ncnc32)C(=O)Cn2cnc3c(=O)[nH]c(N)nc32)CC(N)=O)c(=O)[nH]c1=O,14%,105%
H2N-KFFKVKFVVKK-C-smcc-ado-TTC AAA CAT AGT-NH2,15%,84%
H-KFFKFFKFFK-C-smcc-ado-TTC AAA CAT AGT-NH2,15%,
